# Antibody variant affinities, Ab-14 heavy chain, assay 1

Data: MIT Lincoln Laboratory AlphaSeq set, Engelhart et al. 2022, doi:10.1038/s41597-022-01779-4, as distributed in FLAb.

The target is the same throughout: PDVDLGDISGINAS, from the HR2 region of SARS-CoV-2 spike.

The variants keep the light chain, the linker and the frameworks of Ab-14 (scFv order VH, a (GGGGS)3 linker, VL).
VH: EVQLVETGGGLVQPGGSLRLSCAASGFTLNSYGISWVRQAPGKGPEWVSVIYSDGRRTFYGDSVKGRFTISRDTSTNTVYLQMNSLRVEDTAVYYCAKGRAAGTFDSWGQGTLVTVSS
VL: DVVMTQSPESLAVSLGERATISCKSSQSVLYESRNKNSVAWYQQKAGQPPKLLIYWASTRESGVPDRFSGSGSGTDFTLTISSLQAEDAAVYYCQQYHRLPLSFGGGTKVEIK

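Phage display of a naive human antibody library on the peptide gave the parent. In library AAYL49, one, two or three CDR residues were substituted; doubles and triples were drawn at random. The scFvs were displayed on barcoded MATa yeast, the peptide on MATalpha yeast. After mating in shaken culture at 30 °C for 16 h, diploids were selected and their barcode pairs sequenced. Scores were corrected for input abundance and mapped to Kd with protein pairs of known affinity run in the same pool. Each pool was mated in three replicate cultures.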

Changes read parent residue, position, new residue, counted from the first residue of the VH shown. Numbers give log10(Kd / nM), so 0 is 1 nM and 3 is 1 µM. Smaller is tighter. Averages over replicates are reported, and they cover detected replicates only. A pair that was not seen in any replicate is written "not detected"; this usually means weak binding, but a binder can also be missed. Three control strains display no target. For library AAYL49, 15% of the pairings with them gave a signal, with a median of 4.06 and one signal in twenty below 2.83, so weak values seen in few replicates may be background. The control count says in how many pairings with the empty strains this scFv gave a signal. Parent in this assay: reference entry 0.65, copy in this library 4.11 (one replicate of three).

changes,"mean, log10 nM",detected,signal with controls
Y32I/D54S/R57W,not detected,0/3,3/9
S35L/Y60I/G61R,2.94,1/3,0/9
V50H/A102Y/G103R,not detected,0/3,0/9
F27A/Y52E/R56D,2.75,1/3,1/9
G33Y/D62K/A101Y,4.26,1/3,5/9
S35N/F59I/R100W,3.05,1/3,3/9
I51M/A101V/G103A,3.11,2/3,0/9
L29I/G33L/R56Y,not detected,0/3,0/9
G26A/D54L/F105Q,4.13,1/3,1/9
I34S/S35N/A102I,2.54,1/3,0/9
R57M/G99P,4.01,2/3,2/9
Y32S/S35W/Y52T,4.20,1/3,3/9
G33V/V64T/A101M,4.95,1/3,2/9
G26I/V50M/Y60N,3.62,2/3,2/9
G26K/G33T/G61K,not detected,0/3,1/9
G61C/S63H/G103W,not detected,0/3,2/9
L29M/R57Y/D106H,3.98,1/3,2/9
V50Q/G99M,4.25,1/3,3/9
G55Q/R56M/V64N,3.26,1/3,1/9
N30P/S31T/F105L,not detected,0/3,0/9
D54T/T58L/G99D,not detected,0/3,0/9
N30Q/G55W/K65Y,5.42,1/3,0/9
I51T/T104R/F105W,4.78,1/3,0/9
F27L/T58S/K65Y,3.59,2/3,0/9
G33L/G61N/R100K,not detected,0/3,1/9
T28W/F59D/K65P,not detected,0/3,4/9
I51F/Y52Q/D54G,not detected,0/3,0/9
L29A/Y60V/S107L,not detected,0/3,0/9
F27Q/S63C/T104P,5.34,1/3,4/9
D54Y/F59K/A102T,4.73,1/3,3/9
T28L/G33A/Y60D,not detected,0/3,0/9
F27D/D62E/R100W,not detected,0/3,1/9
G33H/S53V/T58N,not detected,0/3,3/9
S35T/K65Y/S107I,not detected,0/3,1/9
G26M/D54N/G99D,3.17,2/3,2/9
I34P/G55W/R56E,3.48,1/3,0/9
F27T/S31A/F59I,not detected,0/3,0/9
I34L/Y52A/T58W,6.51,1/3,2/9
N30Y/T58N/Y60R,4.95,1/3,0/9
D54C/F59E/G103Q,not detected,0/3,1/9
Y32L/I34K/R57H,4.25,3/3,5/9
D54H/D62L/D106Y,not detected,0/3,0/9
F27I/T28P/R100Y,1.46,3/3,1/9
F59E/T104L/S107I,not detected,0/3,0/9
N30G/I51T/F59E,not detected,0/3,2/9
V50Q/T58S/G99R,not detected,0/3,0/9
G26R/Y32E,not detected,0/3,0/9
G26E/G33E/S53N,not detected,0/3,0/9
G26Q/Y52T,2.12,3/3,2/9
S31N/F59N/G99C,not detected,0/3,0/9
I51H/S53Y/Y60V,not detected,0/3,0/9
Y52W/F105D,3.91,1/3,4/9
S35A/S53E/D62F,not detected,0/3,0/9
D54Q/T58A/R100Y,not detected,0/3,2/9
N30A/I34L/D54R,not detected,0/3,1/9
F27L/F59M/V64Y,4.47,2/3,2/9
D54I/D62M/S107Q,not detected,0/3,0/9
T28S/S31Y,1.34,3/3,1/9
S53Q/D54N/D62G,4.21,1/3,2/9
G26T/V50A/R57A,3.06,1/3,1/9
G26A/S35L/Y60M,1.14,3/3,0/9
L29F/V64M,3.85,2/3,0/9
L29G/D62K/V64E,5.21,2/3,8/9
T28D/G55H,not detected,0/3,0/9
G55W/R100I,not detected,0/3,0/9
I51P/A101M,not detected,0/3,1/9
Y60F/F105E/S107N,not detected,0/3,1/9
F27K/L29V/G99Q,4.84,2/3,4/9
I51A/D54C/F59N,5.05,3/3,4/9
F27T/I51S/D54Y,not detected,0/3,1/9
I34P/R56V/F105P,not detected,0/3,0/9
N30W/S63Q/V64D,3.20,1/3,0/9
N30L/I34L/G99A,1.92,1/3,0/9
S53M/G61Y/G99W,3.99,2/3,2/9
I34T/Y52K/Y60N,not detected,0/3,2/9
L29H/T58R/F59Q,3.87,1/3,1/9
D54P/F59P/S63K,3.09,1/3,1/9
L29S/V64E/T104P,not detected,0/3,0/9
G26D/G99P,4.00,3/3,6/9
S31E/S53E/Y60M,not detected,0/3,2/9

Picked from the list: the 7 lowest averages where every replicate gave a value.

changes	mean, log10 nM	detected	signal with controls
G26A/S35L/Y60M	1.14	3/3	0/9
T28S/S31Y	1.34	3/3	1/9
F27I/T28P/R100Y	1.46	3/3	1/9
G26Q/Y52T	2.12	3/3	2/9
G26D/G99P	4.00	3/3	6/9
Y32L/I34K/R57H	4.25	3/3	5/9
I51A/D54C/F59N	5.05	3/3	4/9